Results published in US20080312301A1, “Substituted N-Benzo[D]Isoxazol-3-Yl-Amine Compounds as Inhibitors of Mglur5, Serotonin (5-Ht) and Noradrenaline Receptors, and Uses Thereof” (Gruenenthal GmbH, priority 2005, published 2008).

The chains behind the UniProt entries cited, without tags or fusion partners. Residues count along the entry.
UniProt I3LUI7, 19-1212: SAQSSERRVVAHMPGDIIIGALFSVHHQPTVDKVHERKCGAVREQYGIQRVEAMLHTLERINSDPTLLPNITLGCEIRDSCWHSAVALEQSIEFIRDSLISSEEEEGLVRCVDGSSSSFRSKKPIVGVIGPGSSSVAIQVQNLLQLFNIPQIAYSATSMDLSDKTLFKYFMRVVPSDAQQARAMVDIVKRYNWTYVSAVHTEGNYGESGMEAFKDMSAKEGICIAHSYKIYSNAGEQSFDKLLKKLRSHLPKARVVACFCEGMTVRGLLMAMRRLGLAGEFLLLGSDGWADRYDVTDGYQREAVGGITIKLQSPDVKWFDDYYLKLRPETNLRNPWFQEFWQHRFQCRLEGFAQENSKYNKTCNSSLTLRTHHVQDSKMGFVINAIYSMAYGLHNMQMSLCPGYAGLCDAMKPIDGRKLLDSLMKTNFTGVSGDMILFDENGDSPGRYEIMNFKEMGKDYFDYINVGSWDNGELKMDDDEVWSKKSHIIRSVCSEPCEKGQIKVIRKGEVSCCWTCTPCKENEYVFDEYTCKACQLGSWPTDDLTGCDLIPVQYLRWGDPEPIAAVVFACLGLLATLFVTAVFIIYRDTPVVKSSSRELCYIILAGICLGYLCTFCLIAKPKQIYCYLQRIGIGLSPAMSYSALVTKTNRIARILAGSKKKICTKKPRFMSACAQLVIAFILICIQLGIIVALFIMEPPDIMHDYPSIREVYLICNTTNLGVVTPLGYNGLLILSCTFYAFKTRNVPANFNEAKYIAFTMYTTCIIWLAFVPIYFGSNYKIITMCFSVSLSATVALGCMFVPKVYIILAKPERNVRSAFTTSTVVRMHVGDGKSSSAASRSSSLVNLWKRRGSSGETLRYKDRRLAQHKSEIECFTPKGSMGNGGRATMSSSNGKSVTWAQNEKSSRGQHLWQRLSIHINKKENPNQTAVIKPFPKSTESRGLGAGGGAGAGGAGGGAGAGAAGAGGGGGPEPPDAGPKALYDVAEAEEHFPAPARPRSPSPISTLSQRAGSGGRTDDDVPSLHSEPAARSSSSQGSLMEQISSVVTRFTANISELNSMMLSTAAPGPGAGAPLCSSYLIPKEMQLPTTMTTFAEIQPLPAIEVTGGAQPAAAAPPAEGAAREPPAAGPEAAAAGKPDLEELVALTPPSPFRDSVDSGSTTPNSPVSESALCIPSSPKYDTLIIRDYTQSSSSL

Target: T1, mGluR5 receptor (Sus scrofa, UniProt I3LUI7)
T1 construct: 450 μg of protein from brain homogenate are incubated with 5 nM^3[H]-MPEP; from tissue; host or cells: pig brain hemispheres without medulla, cerebellum and pons
Assay: Affinity for the mGluR5 receptor: displacement of 3[H]-MPEP binding in pig brain homogenate
Settings: 10 μM compound, 5 nM 3[H]-MPEP
Procedure: II. Method for Determining the Affinity for the mGluR5 Receptor
In each case 450 μg of protein from brain homogenate are incubated with 5 nM^3[H]-MPEP (Tocris, order No. R1212) (MPEP=2-methyl-6-[…]) and the compounds to be investigated (10 μM in the assay) in buffer (as above) in 250 μl incubation mixtures in 96-well microtiter plates at room temperature for 60 min.
The filter plates were then dried at 55° C. for 60 min.

cyclohexane-[4-(2,2,2-trifluoroethoxy)benzo[d]isoxazol-3-yl]carboxamide [Example 165]
mGluR5 receptor inhibition of the 3[H]-MPEP binding in % (10 μM): 38.04%
